Source: PubChem BioAssay
HCMV NEC inh: cytomegalovirus nuclear egress complex inhibition; 190,000 compounds, 0.15% hits; HTRF UL50-UL53 interaction, normalized percent inhibition; inhibition, % (concentration not given with the values); in the data active = inhibition above about 27%, passing the limit was not always enough
GIV Gai3 FP: GIV-Galpha-i interaction inhibition. P08753. Galpha-i3/FITC-GIV peptide fluorescence polarization, 90 min; active compounds read low; scaled: aluminum fluoride 0%, vehicle 100%. percent of control (FP), % (test concentration not listed). 210,000 compounds, 0.42% hits. AID 1224905;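 active = replicate mean at 85% of control or lower, very high polarization wells dropped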;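 also: lower values mean more displacement of the GIV peptide from Galpha-i3; wells of about 15 µL received 100 nL stock; the first replicate is given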
An asterisk follows results filed as active; · = not tested or not shown. Shown are actives, neighbours in structure and some others; about 0.43% of the full set was active somewhere.

A first look, 3 compounds:
SMILES | HCMV NEC inh | GIV Gai3 FP
O=C(O)c1ccccc1-c1nnc2c(Cl)cc(C(F)(F)F)cn12 | -21.5 | 99.2
Fc1ccccc1-c1nnc2ccc(C(F)(F)F)cn12 | 56.9* | ·
CN(C)c1ccc(/C=C2\N=C(c3ccc(Br)o3)OC2=O)cc1 | -25.6 | -56.4*

All compounds of this part, repeating the preview:
SMILES | HCMV NEC inh | GIV Gai3 FP
O=C(O)c1ccccc1-c1nnc2c(Cl)cc(C(F)(F)F)cn12 | -21.5 | 99.2
Fc1ccccc1-c1nnc2ccc(C(F)(F)F)cn12 | 56.9* | ·
CN(C)c1ccc(/C=C2\N=C(c3ccc(Br)o3)OC2=O)cc1 | -25.6 | -56.4*
CN(C)c1ccc(/C=C2/N=C(c3cccs3)OC2=O)cc1 | -11.5 | ·
O=S(=O)(c1ccc(Cl)cc1)N(Cc1ccccc1)S(=O)(=O)c1ccc(Cl)cc1 | -30.3 | 104.5
Cc1ccc(Cn2c(SCc3cccc(C)c3)nc3cccnc32)cc1 | 22.2* | 105.9
Cc1cccc(CSc2nc3cccnc3n2Cc2ccccc2F)c1 | -21.8 | 101.1
CC(=O)OCCCN1/C(=C\C=C\c2n(CCCOC(C)=O)c3cc(Cl)c(Cl)cc3[n+]2C)N(C)c2cc(Cl)c(Cl)cc21 | · | 59.7*
CCOC(=O)c1cc2c(cc1C(=O)OCC)[n+](CC)c(/C=C/C=C1N(CC)c3cc(Cl)c(Cl)cc3N1CC)n2CC | · | 121.5
Cc1nn(CCC(=O)NCc2ccccc2Br)c(=O)c2noc(C)c12 | -32.4 | 103.6
O=C(O)c1ccc2c3c1cccc3c(=O)n1c3ccccc3nc21 | -57.3 | ·
O=c1c2ccc(NCCO)c3cccc(c32)c2nc3ccccc3n12 | · | -51.6*
CCN1C(=O)/C(=C\c2ccc(-c3ccc(Cl)c(C(=O)O)c3)o2)SC1=S | -390.6 | -14.8*
O=C(O)CN1C(=O)/C(=C\c2ccc(-c3ccc(Cl)c([N+](=O)[O-])c3)o2)SC1=S | -44.3 | 110.8
Cc1csc2c(=O)sc(NC(=O)c3ccco3)nc12 | 32.7 | 103.2
Cc1csc2c(=O)sc(NC(=O)c3cccs3)nc12 | 57.7* | 102.6
O=C(CC1(O)C(=O)Nc2ccc(Br)cc21)c1ccncc1 (stereo not drawn) | -9.2 | 102.6
CC1=Nc2ccccc2NC(=O)C1Cc1ccccc1 (stereo not drawn) | -5.0 | ·
O=C(C1CCCN(c2ncnc3onc(-c4ccc(F)cc4)c23)C1)N1CCN(c2ccccn2)CC1 (stereo not drawn) | 1.4 | 100.4
CC(=O)N1CC=C2C(C#N)=C(N)C(C#N)(C#N)[C@H](c3ccc(F)cc3F)[C@H]2C1 | -35.5 | ·
CCCN1CC=C2C(C#N)=C(N)C(C#N)(C#N)C(c3ccc(F)cc3F)C2C1 (stereo not drawn) | -39.6 | 44.1*
CN1C(=O)/C(=C/C=C2/CCCN2C)N(C)C1=S | -188.0 | 183.0
C=CCN1C(=O)/C(=C\C=C2/CCCN2C)SC1=S | -77.5 | -61.2*
Cc1noc2ncnc(NCc3ccc(F)cc3)c12 | -1.1 | 102.7
Cc1ccc(C)c2[nH]c(=O)c(C(c3nnnn3Cc3ccccc3)N3CCN(C)CC3)cc12 (stereo not drawn) | -19.3 | 109.7

Additional records.
SMILES | HCMV NEC inh | GIV Gai3 FP
Cc1nc(C(N)=S)cs1 | -18.3 | 109.0
Cc1cc(-c2ccc(C(C)C)c(S(=O)(=O)NC(C)(C)C)c2)on1 | -6.6 | 102.0
O=c1[nH]c2cc(Br)cnc2[nH]1 | 76.9* | 102.0
O=c1[nH]c2ccccc2[nH]1 | -29.0 | ·
O=C(Nc1ccc2nc(CN3CCCCC3)[nH]c2c1)c1ccccc1F | -25.7 | 105.3
O=C1NC(=Nc2ccc(F)cc2)S/C1=C/c1ccc(N2CCCC2)o1 | -21.5 | ·
O=C1NC(=Nc2ccc(F)cc2)S/C1=C/c1ccc(N2CCCCCC2)o1 | -28.1 | -78.3*
CCOC(=O)N1CC=C2C(C#N)=C(N)C(C#N)(C#N)C(c3ccc(OC)c(OC)c3)C2C1 (stereo not drawn) | · | 124.9
Cc1[nH]cnc1CN1CCCCCCC1 | -4.4 | 101.4
Cc1[nH]cnc1CN1CCc2c(c3ccccc3n2C)C1=O | 89.5* | ·
CCOC(=O)c1c(C)nc(SC)nc1-c1ccccc1 | · | 120.1
N#CCc1c(C#N)c(N)nc(N2CCN(S(=O)(=O)c3ccccc3)CC2)c1C#N | 21.8 | ·
N#CCc1c(C#N)c(N)nc(N2CCc3ccccc32)c1C#N | 35.2* | ·
CCc1nc(-c2csc(S(=O)(=O)Nc3cccc(Br)c3)c2)no1 | · | 95.0
O/N=C1\CCCc2c1nc(-c1ccccc1Cl)n2O | -3.1 | ·
O/N=C1/CCCc2nn(-c3ccccc3)nc21 | 55.7* | ·
O=C(/C=C/OC(=O)c1ccc(C(F)(F)F)cc1)c1ccc(F)cc1 | -95.6 | 97.3
O=c1c2ccccc2n2c(-c3ccc(F)c(F)c3)nnc2n1CCc1ccccc1 | -7.0 | 95.4
O=c1c2ccccc2n2c(-c3ccc(Cl)cc3)nnc2n1CCc1ccccc1 | 58.6* | 100.3
O=c1[nH]c2ccc(NS(=O)(=O)c3cnc[nH]3)cc2s1 | -4.1 | 99.2
O=c1nc2sc3[nH]c(=O)sc3cc-2s1 | -77.7 | -46.7*
CCOC(=O)c1[nH]c(CSc2cccc[n+]2[O-])c(C(=O)OCC)c1C | 61.6* | ·
CCOC(=O)c1[nH]c(CSc2nnc3ccccn23)c(C(=O)OCC)c1C | -21.8 | ·
CCOc1ccccc1-c1nc(Cn2nnc(C(=O)Nc3ccc(OC)cc3)c2C)c(C)o1 | 16.0 | 101.4
CN(C1=CC(=O)c2ccccc2C1=O)c1ccccc1 | 51.0 | ·

The listing continues.
SMILES | HCMV NEC inh | GIV Gai3 FP
COC1=CC(=O)c2ccccc2C1=O | 100.9* | 96.5
COc1ccc(-c2nc(Nc3ccc(OC)c(Cl)c3)c3ccccc3n2)cc1 | 1.4 | 111.3
COc1ccc(-c2nc(Nc3ccc4c(c3)OCCO4)c3ccccc3n2)cc1OC | 33.6* | 100.7
CCOC(=O)/C(Br)=N\Nc1ccc(C)cc1 | -32.0 | 97.0
COc1ccc(Cl)cc1NC(=O)CN(C)S(=O)(=O)c1ccc2c(c1)CCCC(=O)N2 | -14.4 | 102.6
O=C1Nc2ccc(Br)cc2/C1=C/c1cc2c([nH]1)CCCC2 | -2.6 | ·
CN(C)S(=O)(=O)c1ccc2c(c1)/C(=C/c1cc3c([nH]1)CCCC3)C(=O)N2 | -17.6 | -20.7*
CCc1c(C)c(C#N)c2nc3ccccc3n2c1Nc1ccncc1 | · | 112.0
CCc1c(C)c(C#N)c2nc3ccccc3n2c1NCCN(C)C | -13.8 | ·
CCn1c(O)c(/C=c2/c(C)c(C#N)c3nc4ccccc4n3c2=O)n(CC)c1=S | · | -48.2*
Cc1c(C#N)c2nc3ccccc3n2c(=O)/c1=C/NN1C(=O)CNC1=S | -24.8 | -30.7*
COc1ccc(N2C(=O)NC(=O)/C(=C\c3cc(Br)c(N4CCOCC4)o3)C2=O)cc1 | 0.3 | 110.8
O=C1NC(=O)N(c2ccc(Br)cc2)C(=O)/C1=C/c1ccc(N2CCOCC2)o1 | -112.8 | 16.3*
CCSc1ncccc1C(=O)Oc1cc(C)nn1-c1ccccc1 | -12.5 | 106.0
CCNc1c2c3c(cccc3n(C)c1=O)C(=O)c1ccccc1-2 | -16.8 | ·
Cn1c(=O)c(NC2CCCCC2)c2c3c(cccc31)C(=O)c1ccccc1-2 | · | 3.5*
COc1ccc(C2=NN(C(=O)CSc3nnc(CNC(=O)c4ccc(OC)c(OC)c4)n3C)C(c3ccc(F)cc3)C2)cc1 (stereo not drawn) | · | 106.3
O=C(NC1CCN(Cc2ccccc2)CC1)c1ccc2c(=O)n3c(nc2c1)CCCC3 | -6.0 | 106.9
CCCNC(=O)Nc1nc2ccc(OC)cc2s1 | 3.9 | 107.5
O=C(CSc1ncccc1C(=O)N1CCc2ccccc2C1)Nc1ccc2c(c1)OCO2 | -2.8 | ·
Cc1ccccc1/C=C/c1c[nH]c2ccccc12 | -15.0 | 101.3
OCC[n+]1ccc(/C=C/c2c[nH]c3ccccc23)cc1 | · | -18.2*
CN1c2cc(Cl)ccc2-c2nc(SCC(N)=O)ncc2S1(=O)=O | 1.9 | 105.3
CN1c2cc(Cl)ccc2-c2nc(SCC(=O)NC3CCCC3)ncc2S1(=O)=O | 75.1* | 103.4
CC(C)CCNCC(O)Cn1c2ccc(Br)cc2c2cc(Br)ccc21 (stereo not drawn) | -4.4 | 115.3
Cc1ccsc1C=NCCc1ccc(S(N)(=O)=O)cc1 | -28.2 | ·

2 of these compounds in another layout:
| SMILES | HCMV NEC inh | GIV Gai3 FP |
| --- | --- | --- |
| OCC[n+]1ccc(/C=C/c2c[nH]c3ccccc23)cc1 | · | -18.2* |
| CN1c2cc(Cl)ccc2-c2nc(SCC(N)=O)ncc2S1(=O)=O | 1.9 | 105.3 |

3 of the compounds above, as a markdown table:
| canonical_smiles | HCMV NEC inh | GIV Gai3 FP |
| --- | --- | --- |
| COc1ccc(C2=NN(C(=O)CSc3nnc(CNC(=O)c4ccc(OC)c(OC)c4)n3C)C(c3ccc(F)cc3)C2)cc1 (stereo not drawn) | · | 106.3 |
| O=C(NC1CCN(Cc2ccccc2)CC1)c1ccc2c(=O)n3c(nc2c1)CCCC3 | -6.0 | 106.9 |
| CCCNC(=O)Nc1nc2ccc(OC)cc2s1 | 3.9 | 107.5 |
